For experiment [1], the target named is T1, Aldo-keto reductase family 1 member B1 (Rattus norvegicus, UniProt P07943). The experiment in a line: Inhibitory activity against aldose reductase in rat lens. In outline:
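Rat lens enzyme: 100 lenses from frozen rat eyes homogenized in distilled water and centrifuged at 5 °C; the supernatant was brought to 40% ammonium sulfate saturation and the freshly prepared supernatant was used. Assay at 30 °C in 0.1 M phosphate pH 6.2 with 0.104 mM NADPH and 10 mM DL-glyceraldehyde. NADPH loss was read at 340 nm for 3 min. IC50 from ≥6 concentrations, ≥2 determinations each, by least-squares fit of log dose-response.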

Experiment [2] has as its target T1, Aldo-keto reductase family 1 member B1. Put plainly: The compound was tested for the inhibition of Aldose reductase in rat lens assay.

SMILES strings stand for the structures.

Turning to `O=C1NC(=O)[C@@]2(CCOc3ccc(F)cc32)N1` [SORBINIL], the IC50 (as a rule, the midpoint of a concentration-inhibition curve) in experiment [1] came to 190 nM; in experiment [2], 70 nM.

Source of the values: ChEMBL document CHEMBL1125579, “Relative structure-inhibition analyses of the N-benzoyl and N-(phenylsulfonyl) amino acid aldose reductase inhibitors” (J Med Chem, 1991).
